Reference: patent US20250195483A1, “SPIRO PIPERIDINE DERIVATIVES AS INHIBITORS OF APOL1 AND METHODS OF USING SAME” (Vertex Pharmaceuticals Incorporated, priority 2022, published 2025)

By UniProt entry, the sequences of proteins in these tests, tags left out.
UniProt O14791, whole entry: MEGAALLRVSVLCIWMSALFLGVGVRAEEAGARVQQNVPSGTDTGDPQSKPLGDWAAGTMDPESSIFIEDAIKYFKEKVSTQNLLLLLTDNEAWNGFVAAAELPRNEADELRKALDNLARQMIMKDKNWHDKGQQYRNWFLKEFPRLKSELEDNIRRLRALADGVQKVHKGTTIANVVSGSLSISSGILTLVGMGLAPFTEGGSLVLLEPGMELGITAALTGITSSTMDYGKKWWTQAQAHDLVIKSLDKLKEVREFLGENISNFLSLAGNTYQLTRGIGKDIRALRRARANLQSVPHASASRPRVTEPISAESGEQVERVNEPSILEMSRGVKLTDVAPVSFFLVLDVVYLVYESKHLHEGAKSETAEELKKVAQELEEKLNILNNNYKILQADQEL

Target: APOL1 (Homo sapiens, UniProt O14791)
Test: MultiTox-Fluor Multiplex Cytotoxicity Assay, tet-inducible APOL1 T-REx-HEK293 cells (G0, G1 or G2 clone not specified for Table 20)
Settings: read-out: IP50 (i.e., IC50 for cell proliferation), tet-induced, 24 hours with compound, ratio of dead to live cells
Experimental: Human embryonic kidney (HEK293) cell lines containing a tet-inducible expression system (T-REx™; Invitrogen, Carlsbad, CA) and Adeno-associated virus site 1 pAAVS1-Puro-APOL1 G0 or pAAVS1-Puro-APOL1 G1 or pAAVS1-Puro-APOL1 G2 Clones G0 DC2.13, G1 DC3.25, and G2 DC4.44 were grown in a T-225 flask at ˜90% confluency in cell growth media (DMEM, 10% Tet-free FBS, 2 mM L-glutamine, 100 Units/mL penicillin-streptomycin, 5 μg/mL blasticidin S HCl, 1 μg/mL puromycin dihydrochloride). Cells were washed with DPBS and then trypsinized to dissociate from the flask. Media was used to quench the trypsin, cells were then pelleted at 200 g and resuspended in fresh cell assay media (DMEM, 2% Tet-free FBS, 2 mM L-glutamine, 100 Units/mL penicillin-streptomycin). Cells were counted and diluted to 1.17×10^6 cells/mL. 20 μL of cells (23,400/well) were dispensed in every well of a 384-well Poly-D-Lysine coated plate using the Multidrop dispenser. The plates were then incubated at room temperature for one hour.
Tetracycline is needed to induce APOL1 expression. 1 mg/mL tet stock in water was diluted to 250 ng/mL (5×) in cell assay media. 60 μL of cell assay media (no tet control) was dispensed in columns 1 and 24, and 60 μL of 5× tet in 384-PP-round bottom plate was dispensed in columns 2 to 23 with the Multidrop dispenser.
Assay ready plates from the Global Compound Archive were ordered using template 384_APOL1Cell_DR10n2_50 uM_v3. Compounds were dispensed at 200 nL in DMSO. The final top concentration was 10 μM with a 10 point 3-fold dilution in duplicate in the MultiTox assay.
20 μL was transferred from the 5× tet plate to the ARP and mixed, then 5 μL of 5× tet and the compounds were transferred to the cell plate and mixed using the Bravo. The cell plate was placed in the humidified 37° C. 5% CO2 incubator for 24 hours.
The MultiTox-Fluor Multiplex Cytotoxicity Assay was performed in accordance with the manufacturer's protocol. After cells were incubated with tet and compound for 24 hours, 25 μL of 1× MultiTox reagent was added to each well using the Multidrop dispenser; the plates were placed on a plate shaker (600 rpm) for 2 minutes, then centrifuged briefly and placed back in the 37° C. incubator for 30 minutes. The cell viability (excitation: 400 nm, emission: 486 nm) and cytotoxicity (excitation: 485 nm, emission: 535 nm) were read using the EnVision plate reader. A ratio of dead (cytotoxicity) to live (viability) cells was reported. Data was exported and analyzed in Genedata. Data was normalized using percent of control, no tet (100% viability), and 50 ng/mL tet treated (0% viability), and fit using Smart Fit settings in Genedata.

SMILES	IC50
CCS(=O)(=O)N[C@H]1C[C@H](CN2CCC3(CC2)C(=O)N(C)c2ccc(Cl)cc23)C1	> 500 nM
CN1C(=O)C2(CCN(C[C@H]3C[C@@H](NC(=O)c4ccon4)C3)CC2)c2cc(Cl)ccc21	> 500 nM
CN1C(=O)C2(CCN(C[C@H]3C[C@H](NC(=O)c4cc(C5CC5)no4)C3)CC2)c2cc(Cl)ccc21	> 500 nM
COC(=O)N[C@H]1C[C@@H](CN2CCC3(CC2)C(=O)N(C)c2ccc(Cl)cc23)C1	> 500 nM
CN1C(=O)C2(CCN(C[C@H]3C[C@@H](NC(=O)c4cc(Cl)no4)C3)CC2)c2cc(Cl)ccc21	> 500 nM
